From PubChem BioAssay (Tox21) come the findings set out here.

Protein sequences, listed by entry. Tags and fused reporters are not part of them.
UniProt Q12809, whole entry: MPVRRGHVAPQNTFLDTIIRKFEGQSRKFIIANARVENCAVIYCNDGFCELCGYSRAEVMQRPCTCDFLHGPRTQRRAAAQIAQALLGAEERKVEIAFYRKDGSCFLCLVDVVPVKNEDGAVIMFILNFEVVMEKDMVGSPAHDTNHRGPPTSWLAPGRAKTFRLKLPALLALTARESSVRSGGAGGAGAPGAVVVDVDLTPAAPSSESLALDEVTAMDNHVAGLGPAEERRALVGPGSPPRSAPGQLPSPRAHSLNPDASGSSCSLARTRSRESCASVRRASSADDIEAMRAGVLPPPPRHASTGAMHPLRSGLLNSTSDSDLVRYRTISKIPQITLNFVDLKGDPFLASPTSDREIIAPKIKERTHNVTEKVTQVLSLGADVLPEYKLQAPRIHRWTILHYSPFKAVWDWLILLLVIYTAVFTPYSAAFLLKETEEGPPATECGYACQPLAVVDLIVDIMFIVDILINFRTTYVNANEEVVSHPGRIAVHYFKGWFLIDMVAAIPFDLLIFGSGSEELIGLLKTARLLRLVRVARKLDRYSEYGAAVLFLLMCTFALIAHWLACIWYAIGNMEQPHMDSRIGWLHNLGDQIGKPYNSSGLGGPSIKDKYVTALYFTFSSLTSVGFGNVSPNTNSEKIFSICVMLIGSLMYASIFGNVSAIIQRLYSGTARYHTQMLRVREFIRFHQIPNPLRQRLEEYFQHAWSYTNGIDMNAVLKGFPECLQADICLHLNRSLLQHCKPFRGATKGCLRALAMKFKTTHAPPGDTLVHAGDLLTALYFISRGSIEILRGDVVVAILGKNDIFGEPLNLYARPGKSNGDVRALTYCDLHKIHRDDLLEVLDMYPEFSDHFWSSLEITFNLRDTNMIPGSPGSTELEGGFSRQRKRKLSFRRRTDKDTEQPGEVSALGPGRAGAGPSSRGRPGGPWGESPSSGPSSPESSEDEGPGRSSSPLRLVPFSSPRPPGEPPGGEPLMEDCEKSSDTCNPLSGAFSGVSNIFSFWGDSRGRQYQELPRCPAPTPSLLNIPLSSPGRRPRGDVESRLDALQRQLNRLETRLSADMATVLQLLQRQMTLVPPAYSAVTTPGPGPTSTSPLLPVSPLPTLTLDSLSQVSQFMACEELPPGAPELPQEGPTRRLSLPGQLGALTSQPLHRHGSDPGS
UniProt P08684, whole entry: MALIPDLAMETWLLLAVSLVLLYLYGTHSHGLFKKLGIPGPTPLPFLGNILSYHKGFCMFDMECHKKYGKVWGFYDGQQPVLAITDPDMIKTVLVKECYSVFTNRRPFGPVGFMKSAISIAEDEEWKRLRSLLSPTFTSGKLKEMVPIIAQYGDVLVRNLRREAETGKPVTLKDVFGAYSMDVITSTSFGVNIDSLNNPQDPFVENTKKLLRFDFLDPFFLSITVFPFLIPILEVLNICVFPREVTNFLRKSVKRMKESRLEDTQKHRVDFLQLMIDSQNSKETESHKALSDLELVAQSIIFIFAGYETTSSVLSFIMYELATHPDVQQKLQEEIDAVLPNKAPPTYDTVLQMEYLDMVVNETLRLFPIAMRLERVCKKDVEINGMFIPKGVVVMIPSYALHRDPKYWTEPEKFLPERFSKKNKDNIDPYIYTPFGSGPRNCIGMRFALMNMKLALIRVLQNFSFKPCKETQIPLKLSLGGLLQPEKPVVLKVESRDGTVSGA

Assay [1] concerns the target Voltage-gated inwardly rectifying potassium channel KCNH2 (Homo sapiens) (UniProt Q12809). As to the kind of experiment: Human Ether-a-go-go-Related Gene (hERG) channel small molecule antagonists: fluorescence cell-based qHTS assay (AID 1671200). The conditions noted are these: hERG-U2OS cells, FluxOR thallium flux fluorescence; series mostly up to 76.8 µM. The method, boiled down: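 U2OS cells expressing the channel were plated at 1000 cells/well, incubated overnight at 37 C, then loaded with FluxOR II thallium-sensitive dye for 1 h at room temperature in the dark, with a further 10 min at room temperature before stimulation.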
Background: The hERG channel carries a current that helps repolarise heart muscle cells.

Assay [2] has as its target Cytochrome P450 3A4 (Homo sapiens) (UniProt P08684). Kind of assay: Cytochrome P450 Family 3 Subfamily A Member 4 (CYP3A4) small molecule antagonists: luciferase reporter qHTS assay (AID 1671201). The conditions noted are these: P450-Glo CYP3A4 enzyme, luciferin luminescence, 1 h; series mostly up to 115 µM. The method, boiled down: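 P450-Glo CYP3A4 system with proluciferin substrate; compounds preincubated 10 min RT with enzyme-substrate mix, then NADPH regeneration added for 1 h RT. Detection reagent 20 min, luminescence read as relative luminescence units.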
For orientation: Reporter assays use an easily measured gene product as a stand-in for the process of interest.

The entries are a selection whose mix differs from that of the whole data set. Records with an inconclusive call do not appear. Active and inactive are the calls of the source. Calls follow the shape of the dose curve; as a rule, active = well fitted curve in the direction sought with a large enough effect in the repeat runs; inconclusive = weak or mixed curves; inactive = no such curve, though single readings can be large; an effect the other way counts as inactive or inconclusive.
Also: nearly all actives have a fitted effect of over 50% in size.
Potency is read from the fitted curve at half-maximal effect.

In the case of `O=[N+]([O-])C(Cl)(Cl)Cl`, the Potency result in assay [1] and in assay [2] was “inactive” in each case.
`CCC(=O)N(c1ccccc1)C1(COC)CCN(CCn2nnn(CC)c2=O)CC1`: the Potency entry in assay [1] was “inactive”. For the same molecule, the Potency in assay [2] is active: 493 nM.
The corresponding values for `CCC(=O)N(c1ccccc1)C1(COC)CCN(CCc2cccs2)CC1` are active: 776 nM and active: 796 nM.
Take `CN(CCCl)CCCl`: the Potency entry in assay [1] and in assay [2] was “inactive” in each case.
